Values of other authors, collected in patent US20110027809A1, “METHOD FOR EVALUATION OF DEGREE OF MALIGNANCY OF TUMOR CELL” (priority 2008, published 2011).

System: breast cancer
Conditions: reported; cited from earlier work

Substance: trastuzumab [Herceptin]
- therapeutic effect against breast cancer: therapeutic effect
